The values that follow come from patent US20070142290A1, “SURFACE-MODIFIED SERUM ALBUMIN-METAL PORPHYRIN COMPOSITE, AND OXYGEN INFUSION SOLUTION CONTAINING THE SAME” (Eishun Tsuchida, priority 2004, published 2007).

The experiment in a line: oxygen adsorption/desorption followed by ultraviolet-visible absorption spectrum. Format: physicochemical. To be noted: aqueous solution, alternately blowing oxygen and nitrogen. How it is done:
The surface-modified serum albumin-iron(II) porphyrin complex (carbon monoxide complex) aqueous solution (4 mL) prepared in Example 1 was put into a 1 cm quartz cell for spectroscope, and, light was irradiated onto the porphyrin iron(II) complex coupled albumin aqueous solution (10 minutes) by using a halogen lamp (500 W), while being cooled in ice water and passing (flowing) oxygen therethrough. Thereafter, ultraviolet-visible absorption spectrum measurement of the obtained aqueous solution was carried out. After confirmation of the formation of an oxygen complex, nitrogen was passed therethrough to effect deoxygenation, preparing the deoxy form. […] In addition, it was possible to carry out the adsorption/desorption of oxygen successively by repeating an operation of blowing oxygen and then blowing nitrogen.

With “Example 1: polyoxyethylene (Mw 5,000) surface-modified human serum albumin clathrating 2-(N-(8-(2-methylimidazolyl)octanoyloxy))methyl-5,10,15,20-tetrakis(α,α,α,α-o-(1-methylcyclohexanamido)phenyl)porphinato iron(II); 6 chains in average”, the “reversibility of oxygen adsorption/desorption” value was “adsorption/desorption of oxygen reversibly takes place”.
